Experimental data taken from patent publication US11077169B2, “Soy-derived bioactive peptides for use in compositions and methods for wound healing, tissue engineering, and regenerative medicine” (Temple University-Of The Commonwealth System of Higher …, priority 2015, dated 2021).

The chains behind the UniProt entries cited, without tags or fusion partners. Residues count along the entry.
UniProt Q13797, 30-1035: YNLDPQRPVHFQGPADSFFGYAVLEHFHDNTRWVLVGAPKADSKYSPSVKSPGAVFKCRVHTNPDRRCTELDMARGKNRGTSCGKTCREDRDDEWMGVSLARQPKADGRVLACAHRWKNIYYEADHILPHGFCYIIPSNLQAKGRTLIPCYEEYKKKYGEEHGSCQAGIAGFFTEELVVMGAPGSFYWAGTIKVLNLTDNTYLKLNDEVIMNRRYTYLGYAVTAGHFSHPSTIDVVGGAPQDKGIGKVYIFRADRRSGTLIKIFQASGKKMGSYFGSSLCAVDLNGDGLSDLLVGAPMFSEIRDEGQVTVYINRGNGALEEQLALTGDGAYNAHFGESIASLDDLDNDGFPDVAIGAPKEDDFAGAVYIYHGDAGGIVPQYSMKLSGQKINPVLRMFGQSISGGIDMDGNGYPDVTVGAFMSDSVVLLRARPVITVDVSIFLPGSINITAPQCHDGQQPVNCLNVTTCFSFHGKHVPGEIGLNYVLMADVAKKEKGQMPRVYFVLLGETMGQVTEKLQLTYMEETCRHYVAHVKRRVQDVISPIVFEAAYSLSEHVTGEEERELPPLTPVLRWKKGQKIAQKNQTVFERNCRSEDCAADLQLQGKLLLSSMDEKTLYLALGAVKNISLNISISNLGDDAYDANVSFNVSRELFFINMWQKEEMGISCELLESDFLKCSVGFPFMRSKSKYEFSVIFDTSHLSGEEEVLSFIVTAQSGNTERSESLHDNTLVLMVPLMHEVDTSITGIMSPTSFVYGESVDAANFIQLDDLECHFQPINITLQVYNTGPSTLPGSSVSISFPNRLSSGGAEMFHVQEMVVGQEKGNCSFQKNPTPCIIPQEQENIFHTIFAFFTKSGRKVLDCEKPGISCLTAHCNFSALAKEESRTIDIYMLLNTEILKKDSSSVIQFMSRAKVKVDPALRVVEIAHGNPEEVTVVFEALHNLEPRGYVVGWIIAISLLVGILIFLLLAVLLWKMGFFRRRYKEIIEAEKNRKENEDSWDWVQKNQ

Target: T1, α9β1 integrin (Homo sapiens, UniProt P05556+Q13797)
T1 construct: expressed in transfected cells; host or cells: α9+ cells (α9-transfected)
Assay: inhibition of α9LN18 cell adhesion by LDV peptide
Assay type: cell-based
Conditions: α9LN18 cells
Text: CS-1, which contains the LDV (EILDVPST) sequence (SEQ ID NO.: 1), was purchased and tested in a cell adhesion assay. LN18 cells transfected with the α9 integrin subunit (α9LN18) were used in this assay. Immobilized F9 fraction and recombinant VCAM-1 were used as ligands for α9β1 integrin. […] This is the first proof that the LDV motif present in β-conglycinin alpha' is a binding site for α9β1 integrin. […] Next steps include synthesizing a peptide that resembles CS-1 peptide from β-conglycinin alpha' (RDLDVFLS) (SEQ ID NO.: 2), which will be tested as an inhibitor of binding of α9β1 integrin to F9 and to VCAM-1 in a cell adhesion assay using cells expressing this integrin, as well as in an ELISA using purified α9β1 integrin. This strategy will confirm that the LDV motif present in soy β-conglycinin alpha' is a binding site for α9β1 integrin.

EILDVPST [CS-1] was tested, and the “concentration that completely inhibited cell adhesion to immobilized F9 fraction” value (ligand immobilized F9) was “around 500 μM” and the “concentration that completely inhibited cell adhesion to recombinant VCAM-1” value (ligand recombinant VCAM-1) was “around 500 μM”.
